Experimental data as given in patent US9862674B2, “Therapeutic compounds and methods of use” (University of Florida Research Foundation, Inc., priority 2007, dated 2018).

The chains behind the UniProt entries cited, without tags or fusion partners. Residues count along the entry.
UniProt P28335, 33-458 limits assumed: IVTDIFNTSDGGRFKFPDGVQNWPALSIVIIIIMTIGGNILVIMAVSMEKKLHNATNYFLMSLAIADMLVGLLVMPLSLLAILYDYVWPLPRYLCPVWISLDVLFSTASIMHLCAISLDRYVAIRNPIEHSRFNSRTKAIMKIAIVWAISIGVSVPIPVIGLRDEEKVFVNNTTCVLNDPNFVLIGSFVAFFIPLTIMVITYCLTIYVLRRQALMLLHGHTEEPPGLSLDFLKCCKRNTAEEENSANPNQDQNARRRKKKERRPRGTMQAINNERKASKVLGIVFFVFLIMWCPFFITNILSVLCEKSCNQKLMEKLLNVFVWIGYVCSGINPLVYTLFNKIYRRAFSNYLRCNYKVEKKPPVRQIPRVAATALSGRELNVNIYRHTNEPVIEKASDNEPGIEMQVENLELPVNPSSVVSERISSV
UniProt P28223, whole entry: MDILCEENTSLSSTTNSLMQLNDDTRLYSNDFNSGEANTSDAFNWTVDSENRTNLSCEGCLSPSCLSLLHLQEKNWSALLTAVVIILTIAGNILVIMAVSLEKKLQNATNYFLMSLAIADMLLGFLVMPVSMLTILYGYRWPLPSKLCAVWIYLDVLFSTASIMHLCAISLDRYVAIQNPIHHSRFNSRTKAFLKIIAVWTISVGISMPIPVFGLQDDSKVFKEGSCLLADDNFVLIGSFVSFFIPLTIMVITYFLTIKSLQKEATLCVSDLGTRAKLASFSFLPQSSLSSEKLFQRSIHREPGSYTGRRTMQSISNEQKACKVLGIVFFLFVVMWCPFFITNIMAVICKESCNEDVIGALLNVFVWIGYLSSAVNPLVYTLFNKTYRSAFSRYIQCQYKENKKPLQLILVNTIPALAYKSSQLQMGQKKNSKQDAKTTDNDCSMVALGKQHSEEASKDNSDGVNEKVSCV
UniProt P41595, whole entry: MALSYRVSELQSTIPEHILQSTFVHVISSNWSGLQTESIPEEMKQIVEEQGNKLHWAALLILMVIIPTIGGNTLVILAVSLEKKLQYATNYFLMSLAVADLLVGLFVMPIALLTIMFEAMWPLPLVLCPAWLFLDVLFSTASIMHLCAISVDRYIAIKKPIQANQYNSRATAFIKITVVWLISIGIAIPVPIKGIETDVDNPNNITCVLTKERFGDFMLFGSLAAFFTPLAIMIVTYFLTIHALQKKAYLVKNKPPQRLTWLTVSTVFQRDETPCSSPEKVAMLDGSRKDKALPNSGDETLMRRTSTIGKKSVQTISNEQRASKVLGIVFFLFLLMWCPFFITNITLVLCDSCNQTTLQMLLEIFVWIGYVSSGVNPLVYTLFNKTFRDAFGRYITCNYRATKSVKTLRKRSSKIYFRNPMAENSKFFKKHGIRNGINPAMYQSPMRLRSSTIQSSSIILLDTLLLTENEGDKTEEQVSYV

Experiments:
human 5-HT2C receptor = human 5-HT2C receptor (Homo sapiens, UniProt P28335); assay: PLC/[3H]-IP formation in CHO cells transiently transfected with human 5-HT2C cDNA; format: cell-based; conditions: at Emax concentration
5HT2A receptor [1] = molecular target: T1, 5HT2A receptor (Homo sapiens, UniProt P28223); assay: Radioreceptor saturation and competition binding, [3H]-ketanserin labeled 5-HT2A receptor membranes from transfected CHO-K1 cells; conditions: Hill slope, competition binding
5HT2A receptor [2] = molecular target: T1, 5HT2A receptor; assay: PLC/[3H]-IP formation in CHO cells transiently transfected with human 5HT2A cDNA (agonist and antagonist mode); format: cell-based
human 5-HT2B receptor = human 5-HT2B receptor (Homo sapiens, UniProt P41595); assay: Radioreceptor saturation and competition binding, [3H]-mesulergine labeled 5-HT2B receptor membranes from transfected CHO-K1 cells; conditions: Hill slope, competition binding

## CN(C)[C@@H]1Cc2ccccc2[C@@H](c2ccccc2)C1
Human 5-HT2C receptor
  maximal PLC/[3H]-IP formation, 5-HT2C: 475 % basal control activity
5HT2A receptor [1]
  nH of 5HT2A displacement curve: 1.1±0.1
5HT2A receptor [2]; (−)-trans-PAT 10 μM vs 5-HT 1.0 μM
  blockade of 5-HT-stimulated PLC/[3H]-IP formation, 5HT2A: fully blocked
5HT2A receptor [2]; concentrations up to 10 μM
  stimulation of PLC/[3H]-IP formation, 5HT2A: did not stimulate
Human 5-HT2B receptor
  nH of 5-HT2B displacement curve: 1.1±0.1
